{"source": "paper PMC8691691", "about": "(ACS Chemical Neuroscience, 2021)", "key": {"[1]": {"target": "T1, GlyT2 A639C mutant (Rattus norvegicus, UniProt P58295, A639C)", "T1 construct": "expressed in transfected cells; host or cells: COS7", "T1 sequence (P58295 1-799 A639C)": "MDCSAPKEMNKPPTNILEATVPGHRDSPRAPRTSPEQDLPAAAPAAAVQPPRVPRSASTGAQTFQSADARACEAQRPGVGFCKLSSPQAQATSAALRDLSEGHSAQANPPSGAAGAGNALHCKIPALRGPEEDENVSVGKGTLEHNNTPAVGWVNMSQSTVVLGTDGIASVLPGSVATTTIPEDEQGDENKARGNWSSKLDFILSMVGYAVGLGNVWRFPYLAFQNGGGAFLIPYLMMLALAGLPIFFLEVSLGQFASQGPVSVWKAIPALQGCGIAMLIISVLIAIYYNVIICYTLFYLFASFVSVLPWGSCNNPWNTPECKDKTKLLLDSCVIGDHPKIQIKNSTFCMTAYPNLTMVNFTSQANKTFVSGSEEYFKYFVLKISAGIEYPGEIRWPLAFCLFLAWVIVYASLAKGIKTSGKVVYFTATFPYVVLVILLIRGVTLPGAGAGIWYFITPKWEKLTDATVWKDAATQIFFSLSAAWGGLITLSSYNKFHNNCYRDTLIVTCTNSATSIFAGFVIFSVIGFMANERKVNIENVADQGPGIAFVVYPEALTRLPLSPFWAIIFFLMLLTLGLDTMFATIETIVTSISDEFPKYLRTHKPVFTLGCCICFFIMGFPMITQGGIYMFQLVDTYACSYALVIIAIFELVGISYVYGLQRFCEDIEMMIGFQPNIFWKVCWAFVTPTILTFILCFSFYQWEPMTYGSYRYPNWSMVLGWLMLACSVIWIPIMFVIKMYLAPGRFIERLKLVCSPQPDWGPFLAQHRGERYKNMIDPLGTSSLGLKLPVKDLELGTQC", "assay": "[3H]glycine transport by GlyT2 mutant in COS7 cells", "format": "cell-based"}, "[2]": {"target": "T2, GlyT2 D635E mutant (Rattus norvegicus, UniProt P58295, D635E)", "T2 construct": "expressed in transfected cells; host or cells: COS7", "T2 sequence (P58295 1-799 D635E)": "T1 sequence (P58295 1-799 A639C) with D635E, C639A", "assay": "[3H]glycine transport by GlyT2 mutant in COS7 cells", "format": "cell-based"}}, "note": "Where a chain is given by its changes, count along the chain named."}
{"smiles": "NCC(=O)O", "note": "[Gly, glycine]", "values": [{"measurement": "EC50", "setting": "[1]", "result": "176 ± 14", "unit": "µM"}, {"measurement": "EC50", "setting": "[2]", "result": "123 ± 6", "unit": "µM"}]}
